Test results taken from patent US11396517B1, “Exo-aza spiro inhibitors of menin-MLL interaction” (Janssen Pharmaceutica NV, priority 2017, dated 2022).

The chains behind the UniProt entries cited, without tags or fusion partners. A line that says so, or that is headed by a name, gives the form on record, which may keep a tag or linker. Residues count along the entry.
UniProt O00255, 1-610 with tags or gaps T541A limits assumed: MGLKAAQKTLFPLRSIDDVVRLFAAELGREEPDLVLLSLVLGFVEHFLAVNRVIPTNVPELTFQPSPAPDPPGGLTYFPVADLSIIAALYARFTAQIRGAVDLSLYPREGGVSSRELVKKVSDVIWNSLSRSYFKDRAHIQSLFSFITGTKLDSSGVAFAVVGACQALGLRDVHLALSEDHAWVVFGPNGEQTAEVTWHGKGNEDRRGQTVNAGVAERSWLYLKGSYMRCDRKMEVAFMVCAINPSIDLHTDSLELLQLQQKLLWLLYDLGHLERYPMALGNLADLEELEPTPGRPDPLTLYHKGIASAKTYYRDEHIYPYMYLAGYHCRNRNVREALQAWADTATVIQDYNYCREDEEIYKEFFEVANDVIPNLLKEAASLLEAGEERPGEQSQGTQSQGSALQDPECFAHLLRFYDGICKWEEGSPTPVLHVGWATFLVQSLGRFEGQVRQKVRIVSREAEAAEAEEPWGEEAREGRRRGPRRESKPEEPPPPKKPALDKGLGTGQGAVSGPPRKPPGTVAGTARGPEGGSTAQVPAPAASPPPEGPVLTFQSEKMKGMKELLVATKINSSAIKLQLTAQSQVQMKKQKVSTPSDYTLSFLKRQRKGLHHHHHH

Legend:
[1] = target: menin (Homo sapiens, UniProt O00255, T541A); test: Menin/MLL homogenous time-resolved fluorescence (HTRF) assay; conditions: read-out: (2) location 2 Menin HTRF assay (IC50 (nM))
[2] = tested on: MV-4-11; test: Proliferation assay A (spheroid assay) MV-4-11; conditions: read-out: (3a) Spheroid assay MV-4-11 (IC50(μM)) Assay A; MV-4-11 cells, 8 d, AUC of confluence against time, absolute IC50
[3] = tested on: MOLM14; test: Proliferation assay B (spheroid assay) MOLM14; conditions: read-out: (3b) Spheroid assay MOLM14 (IC50(μM)) Assay B; MOLM14 cells, confluence at day 8, absolute IC50
[4] = tested on: MV-4-11; test: Proliferation assay B (spheroid assay) MV-4-11; conditions: read-out: (3b) Spheroid assay MV-4--11 (IC50(μM)) Assay B; MV-4-11 cells, confluence at day 8, absolute IC50

| SMILES | IC50 [1] | IC50 [2] | IC50 [3] | IC50 [4] |
| --- | --- | --- | --- | --- |
| CNC(=O)c1ccc(NC2CC3(CCN(c4ncnc5sc(CC(F)(F)F)cc45)C3)C2)c(C)c1 (single isomer, unassigned) | 4.7 nM | – | 1.04 µM | – |
| CNC(=O)c1ccc(NC2CC3(CCN(c4ncnc5sc(CC(F)(F)F)cc45)C3)C2)cc1C (single isomer, unassigned) | 11.8 nM | – | 2.9 µM | – |
| CS(=O)(=O)N[C@H]1CC[C@@H](NC2CC3(CCN(c4ncnc5sc(CC(F)(F)F)cc45)C3)C2)CC1 (single isomer, unassigned) | – | – | 2.94 µM | – |
| Cc1nc(N2CCC3(CC(Nc4ccccc4)C3)C2)c2cc(CC(F)(F)F)sc2n1 (single isomer, unassigned) | 246 nM | – | – | – |

The next lines start with the values.

| IC50 [1] | IC50 [2] | IC50 [3] | IC50 [4] | SMILES |
| --- | --- | --- | --- | --- |
| 12.4 nM | 0.95 µM | – | – | CC(C)(C#N)c1ccc(NC2CC3(CCN(c4ncnc5sc(CC(F)(F)F)cc45)C3)C2)cc1 (single isomer, unassigned) |
| 97 nM | – | > 3.75 µM | 2.6 µM | FC(F)(F)Cc1cc2c(N3CCC4(CC(Nc5ccncc5)C4)C3)ncnc2s1 (single isomer, unassigned) |
| 58.3 nM | 2.3 µM | – | – | N#CCc1cccc(NC2CC3(CCN(c4ncnc5sc(CC(F)(F)F)cc45)C3)C2)c1 (single isomer, unassigned) |
| 58.3 nM | 3.16 µM | – | – | N#CCc1ccc(NC2CC3(CCN(c4ncnc5sc(CC(F)(F)F)cc45)C3)C2)cc1F (single isomer, unassigned) [Compound 199] |
| 3.6 nM | 0.92 µM | – | – | N#CCc1ccc(NC2CC3(CCN(c4ncnc5sc(CC(F)(F)F)cc45)C3)C2)cc1F (single isomer, unassigned) [Compound 200] |
